CycPeptMPDB entries from one study

Collected by the curators of CycPeptMPDB (Li et al. 2023) from Kelly et al. 2021, doi:10.1021/jacs.0c06115.

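Conditions beyond the assay type are not listed; see the original paper. Other peptides of the study may be missing here. Entries at the database's floor value (log10 P of -10) are not listed.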

PAMPA measures passive passage through an artificial lipid membrane. Permeability is given as log10 of P in cm/s; higher (less negative) is more permeable.

| compound | PAMPA (log10 cm/s) |
|---|---|
| CC(=O)N1CCC[C@H]1C(=O)N[C@@H]1C(=O)N(C)[C@H](CC(C)C)C(=O)N[C@H](CC(C)C)C(=O)N[C@H](CC(C)C)C(=O)N[C@H](CC(C)C)C(=O)N(C)[C@@H](C)C(=O)N[C@@H](CC(C)C)C(=O)N2CCC[C@@H]2C(=O)O[C@@H]1C | -7.43 |
| CC(=O)N[C@@H]1C(=O)N2CCC[C@H]2C(=O)N(C)[C@H](CC(C)C)C(=O)N[C@H](CC(C)C)C(=O)N[C@H](CC(C)C)C(=O)N[C@@H](CC(C)C)C(=O)N[C@H](C)C(=O)N[C@@H](CC(C)C)C(=O)N2CCC[C@@H]2C(=O)O[C@@H]1C | -6.83 |
| CC(=O)N1CCC[C@H]1C(=O)N[C@@H]1C(=O)N(C)[C@H](CC(C)C)C(=O)N[C@@H](CC(C)C)C(=O)N(C)[C@H](CC(C)C)C(=O)N[C@H](CC(C)C)C(=O)N(C)[C@H](C)C(=O)N[C@@H](CC(C)C)C(=O)N2CCC[C@@H]2C(=O)O[C@@H]1C | -5.00 |
| CC(=O)N1CCC[C@@H]1C(=O)N(C)[C@H](CC(C)C)C(=O)N[C@@H]1C(=O)N(C)[C@H](CC(C)C)C(=O)N[C@H](CC(C)C)C(=O)N(C)[C@@H](CC(C)C)C(=O)N(C)[C@H](C)C(=O)N[C@H](CC(C)C)C(=O)N2CCC[C@@H]2C(=O)O[C@@H]1C | -5.53 |
| CC(=O)N1CCC[C@H]1C(=O)N(C)[C@@H](CC(C)C)C(=O)N[C@@H]1C(=O)N(C)[C@H](CC(C)C)C(=O)N(C)[C@@H](CC(C)C)C(=O)N[C@@H](CC(C)C)C(=O)N(C)[C@H](C)C(=O)N[C@@H](CC(C)C)C(=O)N2CCC[C@@H]2C(=O)O[C@@H]1C | -6.09 |
| CC(=O)N1CCC[C@H]1C(=O)N(C)[C@@H](CC(C)C)C(=O)N[C@@H]1C(=O)N(C)[C@@H](CC(C)C)C(=O)N[C@@H](CC(C)C)C(=O)N(C)[C@@H](CC(C)C)C(=O)N(C)[C@@H](C)C(=O)N[C@H](CC(C)C)C(=O)N2CCC[C@@H]2C(=O)O[C@@H]1C | -6.30 |
| CC(=O)N1CCC[C@@H]1C(=O)N(C)[C@@H](CC(C)C)C(=O)N[C@@H]1C(=O)N(C)[C@@H](CC(C)C)C(=O)N[C@H](CC(C)C)C(=O)N(C)[C@@H](CC(C)C)C(=O)N(C)[C@@H](C)C(=O)N[C@@H](CC(C)C)C(=O)N2CCC[C@H]2C(=O)O[C@@H]1C | -5.61 |
| CC(=O)N1CCC[C@H]1C(=O)N[C@@H]1C(=O)N[C@H](CC(C)C)C(=O)N[C@H](CC(C)C)C(=O)N[C@H](CC(C)C)C(=O)N(C)[C@H](CC(C)C)C(=O)N(C)[C@@H](C)C(=O)N[C@@H](CC(C)C)C(=O)N2CCC[C@@H]2C(=O)O[C@@H]1C | -5.67 |
| CC(=O)N1CCC[C@H]1C(=O)N(C)[C@@H](CC(C)C)C(=O)N[C@@H]1C(=O)N(C)[C@@H](CC(C)C)C(=O)N[C@@H](CC(C)C)C(=O)N[C@H](CC(C)C)C(=O)N(C)[C@@H](C)C(=O)N[C@@H](CC(C)C)C(=O)N2CCC[C@H]2C(=O)O[C@@H]1C | -5.25 |
| CC(=O)N1CCC[C@@H]1C(=O)N(C)[C@@H](CC(C)C)C(=O)N[C@@H]1C(=O)N(C)[C@H](CC(C)C)C(=O)N(C)[C@@H](CC(C)C)C(=O)N[C@@H](CC(C)C)C(=O)N(C)[C@@H](C)C(=O)N[C@H](CC(C)C)C(=O)N2CCC[C@@H]2C(=O)O[C@@H]1C | -5.09 |
| CC(=O)N1CCC[C@@H]1C(=O)N(C)[C@H](CC(C)C)C(=O)N[C@@H]1C(=O)N(C)[C@@H](CC(C)C)C(=O)N(C)[C@@H](CC(C)C)C(=O)N(C)[C@H](CC(C)C)C(=O)N(C)[C@H](C)C(=O)N[C@H](CC(C)C)C(=O)N2CCC[C@@H]2C(=O)O[C@@H]1C | -5.17 |
| CC(=O)N1CCC[C@H]1C(=O)N(C)[C@@H](CC(C)C)C(=O)N[C@@H]1C(=O)N(C)[C@H](CC(C)C)C(=O)N[C@H](CC(C)C)C(=O)N(C)[C@@H](CC(C)C)C(=O)N(C)[C@H](C)C(=O)N[C@H](CC(C)C)C(=O)N2CCC[C@H]2C(=O)O[C@@H]1C | -6.09 |
| CC(=O)N1CCC[C@H]1C(=O)N(C)[C@H](CC(C)C)C(=O)N[C@@H]1C(=O)N[C@H](CC(C)C)C(=O)N(C)[C@H](CC(C)C)C(=O)N[C@H](CC(C)C)C(=O)N(C)[C@@H](C)C(=O)N[C@H](CC(C)C)C(=O)N2CCC[C@H]2C(=O)O[C@@H]1C | -5.09 |
| CC(=O)N1CCC[C@H]1C(=O)N[C@@H]1C(=O)N[C@H](CC(C)C)C(=O)N(C)[C@H](CC(C)C)C(=O)N[C@@H](CC(C)C)C(=O)N[C@H](CC(C)C)C(=O)N(C)[C@@H](C)C(=O)N[C@@H](CC(C)C)C(=O)N2CCC[C@@H]2C(=O)O[C@@H]1C | -4.92 |

A selection of 2 entries from above:

| compound | PAMPA (log10 cm/s) |
|---|---|
| CC(=O)N1CCC[C@@H]1C(=O)N(C)[C@@H](CC(C)C)C(=O)N[C@@H]1C(=O)N(C)[C@H](CC(C)C)C(=O)N(C)[C@@H](CC(C)C)C(=O)N[C@@H](CC(C)C)C(=O)N(C)[C@@H](C)C(=O)N[C@H](CC(C)C)C(=O)N2CCC[C@@H]2C(=O)O[C@@H]1C | -5.09 |
| CC(=O)N1CCC[C@H]1C(=O)N(C)[C@@H](CC(C)C)C(=O)N[C@@H]1C(=O)N(C)[C@H](CC(C)C)C(=O)N(C)[C@@H](CC(C)C)C(=O)N[C@@H](CC(C)C)C(=O)N(C)[C@H](C)C(=O)N[C@@H](CC(C)C)C(=O)N2CCC[C@@H]2C(=O)O[C@@H]1C | -6.09 |